The values below come from US11541029B2, “High penetration compositions and their applications” (Techfields Pharma Co., Ltd., priority 2008, dated 2023).

The conditions of this data set: male, rat, in vivo.

For the compound `CC(C)Cc1ccc(C(C)C(=O)O)cc1` (stereo not shown) [ibuprofen, 2-(ρ-isobutylphenyl)propionic acid, reference compound], the “ibuprofen in Brain (1 hr)” value is listed as 12.2 ± 5.2 nmol/g.
